Experimental data: US20030032636A1, “Combination of a serotonin reuptake inhibitor and a 5-HT2C antagonist, inverse agonist or partial agonist” (H. Lundbeck A/S, priority 1999, published 2003)

Target: T1, 5-HT2C receptor (Rattus norvegicus, UniProt P08909)
T1 construct: host or cells: SR-3T3 cells
T1 sequence (P08909 33-460): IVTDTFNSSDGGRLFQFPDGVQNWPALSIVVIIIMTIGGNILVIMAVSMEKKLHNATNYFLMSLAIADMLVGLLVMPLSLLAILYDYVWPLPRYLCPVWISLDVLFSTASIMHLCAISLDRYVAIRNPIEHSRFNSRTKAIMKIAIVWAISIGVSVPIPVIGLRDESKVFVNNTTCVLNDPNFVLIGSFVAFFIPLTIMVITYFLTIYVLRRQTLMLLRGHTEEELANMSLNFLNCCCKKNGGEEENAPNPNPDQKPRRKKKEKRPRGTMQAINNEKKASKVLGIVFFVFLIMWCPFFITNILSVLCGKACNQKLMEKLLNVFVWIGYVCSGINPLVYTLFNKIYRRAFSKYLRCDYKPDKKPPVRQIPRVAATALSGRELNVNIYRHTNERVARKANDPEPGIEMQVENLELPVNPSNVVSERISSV
Experiment: 5-HT2C binding (3H-Mesulergine, SR-3T3 cells)
Conditions: 0.5 nM 3H-Mesulergine

Ki: 0.19 nM
Structure (SMILES): Cc1nc2sccn2c(=O)c1CCN1CCC(=C(c2ccc(F)cc2)c2ccc(F)cc2)CC1 [ritanserin]
